In paper PMC9371589 (Behavioural pharmacology, 2022):

Test system: rhesus monkeys
Details: both, rhesus monkey, in vivo

Substance: buprenorphine
- maximum number of infusions: 12.4 ± 4.8 infusions
